# Assay results taken from patent US6762174B1 (priority 1998, dated 2004).
# Read-outs that look alike come from different tables or passages of the source.
# Columns and labels:
# [1] = tested on: CHO cells containing a cloned gene for tissue plasminogen activator (tPA); assay: Stimulation of tPA production from CHO cells (ELISA); details: for Culture Cell Density / Picograms tPA per cell / Supernatant Concentration (tPA) / Supernatant Concentration relative to control / tPA per cell relative to control: 1 ρg/ml; for Culture Cell Density: cell numbers per milliliter
# [2] = tested on: MT-1 breast cancer xenograft
# [3] = tested on: MT-1 breast cancer xenograft; remark: listed apart in the source
# MOPC-315 myeloma [4] = assay: MOPC-315 Myeloma study #1: β-alethine ip day 2 (1 × 10^6 tumor cells); details: BT 30 femtograms/kg to 3 milligrams/kg on day 2
# MOPC-315 myeloma [5] = assay: MOPC-315 Myeloma study #2: β-alethine ip day 10 (1 × 10^6 tumor cells); details: BT 30 femtograms/kg to 3 milligrams/kg on day 10
# NS-1 myeloma = details: published studies; cited from earlier work
compound,measurement,setting,value
N-carbobenzoxy-β-alanyl-taurine zinc salt,Culture Cell Density,[1]; listed as #1,4.0 × 10^5
same,Culture Cell Density,[1]; listed as #2,4.8 × 10^5
same,Culture Cell Density,[1]; listed as #3,5.2 × 10^5
same,Picograms tPA per cell,[1]; listed as #1,3.73 Picograms per cell
same,Supernatant Concentration (tPA),[1]; listed as #1,"1,492.8 nanograms/ml"
same,Supernatant Concentration relative to control,[1]; listed as #1,[3.5 × control]
same,tPA per cell relative to control,[1]; listed as #1,[1.9 × control]
same,Picograms tPA per cell,[1]; listed as #2,2.89 Picograms per cell
same,Supernatant Concentration (tPA),[1]; listed as #2,"1,389.4 nanograms/ml"
same,Supernatant Concentration relative to control,[1]; listed as #2,[3.3 × control]
same,tPA per cell relative to control,[1]; listed as #2,[1.5 × control]
same,Picograms tPA per cell,[1]; listed as #3,4.06 Picograms per cell
same,Supernatant Concentration (tPA),[1]; listed as #3,"2,113.0 nanograms/ml"
same,Supernatant Concentration relative to control,[1]; listed as #3,[5.0 × control]
same,tPA per cell relative to control,[1]; listed as #3,[2.1 × control]
same,per-cell production of tPA altered,[1]; vs control,about 2 fold
"O=P1(N(CCCl)CCCl)NCCCO1 (stereo not shown) [cp, cyclophosphamide]",Thrombocytes d 46,[2]; Cp 100 mg/kg,756 10^6/mL
same,Thrombocytes d 46,[2]; Cp 200 mg/kg,505 10^6/mL
same,Thrombocytes d 46,[2]; Cp 300 mg/kg,425 10^6/mL
"NCCC(=O)NCCSSCCNC(=O)CCN [BT, β-alethine]",T/C ratio (treated vs. control median relative tumor volume),"[3]; 3 injections of 30 ng/kg BT, 45 days",29%
same,"toxic effects (body weight, blood parameters)",[3]; BT 30 fg/kg to 30 mg/kg ip,did not produce any toxic effects
same,effect on survival,MOPC-315 myeloma [4],no effect on survival
same,Thrombocytes d 46,"[2]; mouse, in vivo",789 10^6/mL
same,effect on survival,MOPC-315 myeloma [5],no effect on survival
same,effective in causing NS-1 inoculated animals to survive,NS-1 myeloma,100%
